{"source": "ChEMBL document CHEMBL1147595", "about": "“Design and synthesis of photoactivatable aryl diketo acid-containing HIV-1 integrase inhibitors as potential affinity probes” (Bioorg Med Chem Lett, 2004)", "target": "Human immunodeficiency virus type 1 integrase (Human immunodeficiency virus 1, UniProt Q7ZJM1)", "test": "Inhibition of Integrase catalyzed strand transfer (ST) as measured in an in vitro assay"}
{"compound": "O=C(O)C(=O)CC(=O)c1ccccc1", "values": [{"measurement": "IC50", "value": 25, "unit": "µM"}]}
